{"source": "patent US9861647B2", "about": "“Calcium glycerophosphate for treating and preventing respiratory diseases or conditions” (Prelief Inc., priority 2007, dated 2018)", "key": {"[1]": {"test_system": "histamine, leukotriene C4/D4/E4, prostaglandin D2 and E2 in nasal lavage fluid", "experiment": "Mediators (histamine, leukotrienes, prostaglandins) in nasal lavage fluid after intranasal ragweed challenge", "assay_type": "in vivo, Beagle dogs", "settings": "vs vehicle; n=5", "description": "Ragweed sensitized beagle dogs (n=5) with preexisiting nasal and airway allergic responses were utilized in the animal study described in this Example. Dogs served as their own control and initially were treated with vehicle (sterile water) and then rested for 5 weeks prior to receiving the test compound. The target dose of calcium glycerophosphate was about 30 mg/dog twice daily. The maximum concentration of the compound used for inhalation and nasal instillation was 20 mg/ml due to solubility issues. Based on the aerosol testing only 1.6 mg/dog could be delivered by inhalation during a 15 minute exposure (20 mg/ml solution). In addition, each dog received twice daily an intranasal instillation of 30 mg (2×375 μl of 20 mg/ml in each nostril) given within 30 minutes after the end of the inhalation exposures.\n(§1) FIG. 1 summarizes the study design for characterizing the effects of CGP on rhinitis symptoms in ragweed sensitized Beagle dogs. The baseline nasal cavity volume was first measured 3 days (day −3) before each of the vehicle and CGP treatments. […]\nTotal nasal cells were determined using an automatic cell counter. […] At least four hundred inflammatory cells (or less if applicable) were counted and the percentage of specific cell types determined for each animal (slides in duplicates, 200 cells per slide). […]"}, "[2]": {"experiment": "Solubility of CGP in water", "assay_type": "physicochemical"}, "[3]": {"test_system": "ragweed sensitized Beagle dogs", "experiment": "Ragweed-induced nasal congestion, nasal cavity volume by acoustic rhinometry", "assay_type": "in vivo", "settings": "BID inhalation (1.6 mg deposition) + intranasal 30 mg from three days before challenge, vs vehicle, n=5, Two Way Anova p<0.0001", "source_text": "Beagle dogs immunized with ragweed (RW) as puppies develop allergic immune responses. These allergic dogs show elevated total and specific serum IgE and increased numbers of eosinophils in their blood and lungs, as well as an increase in airway resistance and a decrease in dynamic compliance after a challenge with RW by inhalation or local instillation in defined lung lobes. Additionally, these dogs develop increased nasal congestion and inflammation following RW challenge in the nose.\nRagweed sensitized beagle dogs (n=5) with preexisiting nasal and airway allergic responses were utilized in the animal study described in this Example. Dogs served as their own control and initially were treated with vehicle (sterile water) and then rested for 5 weeks prior to receiving the test compound. The target dose of calcium glycerophosphate was about 30 mg/dog twice daily. The maximum concentration of the compound used for inhalation and nasal instillation was 20 mg/ml due to solubility issues. […]\nas §1\nTreatment occurred on Days 0 to 5 (only AM on Day 5). […] The pH of the compound (as administered for nasal inhalation) was recorded prior to administration. […]"}}}
{"substance": "calcium glycerophosphate", "values": [{"measurement": "AUC of leukotriene C4/D4/E4 levels between 0 and 60 min", "setting": "[1]", "value": "leukotriene levels decreased in three dogs and increased in two dogs and no statistical significance was reached"}, {"measurement": "solubility in water", "setting": "[2]", "value": "about 1 % by weight"}, {"measurement": "maximum concentration used for inhalation and nasal instillation due to solubility issues", "setting": "[2]; in sterile water", "value": 20, "unit": "mg/mL"}, {"measurement": "nasal cavity volume relative to baseline / nasal congestion after intranasal ragweed challenge", "setting": "[3]", "value": "significantly increased nasal cavity volume and therefore attenuated nasal congestion compared to vehicle treatment"}, {"measurement": "nasal cavity volume relative to baseline / nasal congestion after intranasal ragweed challenge", "setting": "[3]; listed as CGP", "value": "nasal congestion was significantly attenuated compared to vehicle treatment"}]}
